Source: patent publication US7192924B2, “Corticotropin releasing factor 2 receptor agonists” (priority 2002, dated 2007)
Read-outs that look alike come from different tables or passages of the source.

Assays:
[1] = target: T1, CRF2R (Homo sapiens, UniProt Q13324); assay: CRF2R agonist activity (EC50, Emax), called comparative CRF binding; assay type: cell-based
T1 sequence (Q13324 1-411): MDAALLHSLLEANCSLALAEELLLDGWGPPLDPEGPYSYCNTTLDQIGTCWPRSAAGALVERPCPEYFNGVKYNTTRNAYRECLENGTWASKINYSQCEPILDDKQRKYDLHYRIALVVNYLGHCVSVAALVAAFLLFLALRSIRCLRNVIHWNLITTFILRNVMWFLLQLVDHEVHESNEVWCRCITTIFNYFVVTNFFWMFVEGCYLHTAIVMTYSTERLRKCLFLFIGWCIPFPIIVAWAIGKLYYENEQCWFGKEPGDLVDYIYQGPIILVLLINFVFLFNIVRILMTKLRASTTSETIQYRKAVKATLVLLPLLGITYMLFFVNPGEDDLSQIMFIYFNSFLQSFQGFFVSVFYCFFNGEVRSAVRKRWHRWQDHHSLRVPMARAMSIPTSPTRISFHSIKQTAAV
Procedure, shortened: (§1)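 Agonism is judged from increased cAMP, measured either directly in lysates or through reporter genes under a cAMP responsive element. Cells or membranes express only the receptor of interest, and vehicle-treated cells serve as control.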

[2] = target: T2, CRF1R (Homo sapiens, UniProt P34998); assay: CRF1R agonist activity (EC50, Emax), called comparative CRF binding; assay type: cell-based
T2 sequence (P34998 24-415): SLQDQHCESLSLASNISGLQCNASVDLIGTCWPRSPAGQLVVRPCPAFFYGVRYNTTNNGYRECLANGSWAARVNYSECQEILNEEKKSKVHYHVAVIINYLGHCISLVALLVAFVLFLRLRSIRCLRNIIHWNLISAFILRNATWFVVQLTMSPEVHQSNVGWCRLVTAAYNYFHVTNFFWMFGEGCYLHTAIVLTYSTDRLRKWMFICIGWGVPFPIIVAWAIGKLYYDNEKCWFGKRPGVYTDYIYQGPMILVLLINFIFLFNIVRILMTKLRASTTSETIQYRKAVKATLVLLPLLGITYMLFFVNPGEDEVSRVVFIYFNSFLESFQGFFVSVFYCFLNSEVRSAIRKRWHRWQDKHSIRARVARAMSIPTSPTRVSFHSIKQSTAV
Procedure, shortened: as §1

| SMILES | EC50 ([1]; read-out: CRF2R EC50) [nM] | EC50 ([2]; read-out: CRF1R EC50) [nM] | EC50 [1] [nM] | EC50 [2] [nM] |
| --- | --- | --- | --- | --- |
| CC[C@H](C)[C@H](NC(=O)[C@@H](NC(=O)[C@H](CC(=O)O)NC(=O)[C@H](CC(C)C)NC(=O)[C@H](CC(C)C)NC(=O)[C@H](CC(C)C)NC(=O)[C@H](C)NC(=O)[C@H](CC(N)=O)NC(=O)[C@H](CC(N)=O)NC(=O)[C@H](C)NC(=O)[C@H](C)NC(=O)[C@H](CCC(N)=O)NC(=O)[C@H](CCC(N)=O)NC(=O)[C@H](CCCCN)NC(=O)[C@H](CCC(=O)O)NC(=O)[C@H](CCCCN)NC(=O)[C@H](CCC(=O)O)NC(=O)[C@H](CCC(N)=O)NC(=O)[C@H](CCCCN)NC(=O)[C@H](CCC(=O)O)NC(=O)[C@@H](NC(=O)[C@H](CCC(=O)O)NC(=O)[C@@H](NC(=O)[C@H](CCSC)NC(=O)[C@H](CCCCN)NC(=O)[C@H](CCCNC(=N)N)NC(=O)[C@H](CC(C)C)NC(=O)[C@H](CC(C)C)NC(=O)[C@H](Cc1ccc(O)cc1)NC(=O)[C@H](CCC(N)=O)NC(=O)[C@@H]1CCCN1C(=O)[C@H](CC(C)C)NC(=O)[C@H](CC(=O)O)NC(=O)[C@@H](NC(=O)[C@H](CO)NC(=O)[C@@H](NC(=O)[C@@H]1CCCN1C(=O)[C@@H]1CCCN1C(=O)CNC(=O)[C@@H]1CCC(=O)N1)[C@@H](C)CC)[C@@H](C)CC)[C@@H](C)CC)[C@@H](C)CC)[C@@H](C)O)C(N)=O [compound 224] | 26.9 | ≥ 1000 |  |  |
| CC[C@H](C)[C@H](NC(=O)[C@@H](NC(=O)[C@H](C)NC(=O)[C@H](CC(C)C)NC(=O)[C@H](CC(C)C)NC(=O)[C@H](CC(C)C)NC(=O)[C@H](C)NC(=O)[C@H](CC(N)=O)NC(=O)[C@H](CC(N)=O)NC(=O)[C@H](C)NC(=O)[C@H](C)NC(=O)[C@H](CCC(N)=O)NC(=O)[C@H](CCC(N)=O)NC(=O)[C@H](CCCCN)NC(=O)[C@H](CCC(=O)O)NC(=O)[C@H](CCCCN)NC(=O)[C@H](CCC(=O)O)NC(=O)[C@H](CCC(N)=O)NC(=O)[C@H](CCCCN)NC(=O)[C@H](CCC(=O)O)NC(=O)[C@@H](NC(=O)[C@H](CCC(=O)O)NC(=O)[C@@H](NC(=O)[C@H](CCSC)NC(=O)[C@H](CCCCN)NC(=O)[C@H](CCCNC(=N)N)NC(=O)[C@H](CC(C)C)NC(=O)[C@H](CC(C)C)NC(=O)[C@H](Cc1ccc(O)cc1)NC(=O)[C@H](Cc1ccc(O)cc1)NC(=O)[C@@H]1CCCN1C(=O)[C@H](CC(C)C)NC(=O)[C@H](CC(=O)O)NC(=O)[C@@H](NC(=O)[C@H](CO)NC(=O)[C@@H](NC(=O)[C@@H]1CCCN1C(=O)[C@@H]1CCCN1C(=O)CNC(=O)[C@@H]1CCC(=O)N1)[C@@H](C)CC)[C@@H](C)CC)[C@@H](C)CC)[C@@H](C)CC)[C@@H](C)O)C(N)=O [compound 225] |  |  | 4.8 | 219 |
| CC[C@H](C)[C@H](NC(=O)[C@@H](NC(=O)[C@H](C)NC(=O)[C@H](CC(C)C)NC(=O)[C@H](CC(C)C)NC(=O)[C@H](CC(C)C)NC(=O)[C@H](C)NC(=O)[C@H](CC(N)=O)NC(=O)[C@H](CC(N)=O)NC(=O)[C@H](C)NC(=O)[C@H](C)NC(=O)[C@H](CCC(N)=O)NC(=O)[C@H](CCC(N)=O)NC(=O)[C@H](CCCCN)NC(=O)[C@H](CCC(=O)O)NC(=O)[C@H](CCCCN)NC(=O)[C@H](CCC(=O)O)NC(=O)[C@H](CCC(N)=O)NC(=O)[C@H](CCCCN)NC(=O)[C@H](CCC(=O)O)NC(=O)[C@@H](NC(=O)[C@H](CCC(=O)O)NC(=O)[C@@H](NC(=O)[C@H](CCSC)NC(=O)[C@H](CCCCN)NC(=O)[C@H](CCCNC(=N)N)NC(=O)[C@H](CC(C)C)NC(=O)[C@H](CC(C)C)NC(=O)[C@H](Cc1c[nH]cn1)NC(=O)[C@H](Cc1ccccc1)NC(=O)[C@@H]1CCCN1C(=O)[C@H](CC(C)C)NC(=O)[C@H](CC(=O)O)NC(=O)[C@@H](NC(=O)[C@H](CO)NC(=O)[C@@H](NC(=O)[C@@H]1CCCN1C(=O)[C@@H]1CCCN1C(=O)CNC(=O)[C@@H]1CCC(=O)N1)[C@@H](C)CC)[C@@H](C)CC)[C@@H](C)CC)[C@@H](C)CC)[C@@H](C)O)C(N)=O [compound 229] |  |  | 10.3 | 298 |
| CC[C@H](C)[C@H](NC(=O)[C@@H](NC(=O)[C@H](C)NC(=O)[C@H](CC(C)C)NC(=O)[C@H](CC(C)C)NC(=O)[C@H](CC(C)C)NC(=O)[C@H](C)NC(=O)[C@H](CC(N)=O)NC(=O)[C@H](CC(N)=O)NC(=O)[C@H](C)NC(=O)[C@H](C)NC(=O)[C@H](CCC(N)=O)NC(=O)[C@H](CCC(N)=O)NC(=O)[C@H](CCCCN)NC(=O)[C@H](CCC(=O)O)NC(=O)[C@H](CCCCN)NC(=O)[C@H](CCC(=O)O)NC(=O)[C@H](CCC(N)=O)NC(=O)[C@H](CCCCN)NC(=O)[C@H](CCC(=O)O)NC(=O)[C@@H](NC(=O)[C@H](CCC(=O)O)NC(=O)[C@@H](NC(=O)[C@H](CCSC)NC(=O)[C@H](CCCCN)NC(=O)[C@H](CCCNC(=N)N)NC(=O)[C@H](CC(C)C)NC(=O)[C@H](CC(C)C)NC(=O)[C@H](Cc1ccc(O)cc1)NC(=O)[C@H](Cc1ccccc1)NC(=O)[C@@H]1CCCN1C(=O)[C@H](CC(C)C)NC(=O)[C@H](CC(=O)O)NC(=O)[C@@H](NC(=O)[C@H](CO)NC(=O)[C@@H](NC(=O)[C@@H]1CCCN1C(=O)[C@@H]1CCCN1C(=O)CNC(=O)[C@@H]1CCC(=O)N1)[C@@H](C)CC)[C@@H](C)CC)[C@@H](C)CC)[C@@H](C)CC)[C@@H](C)O)C(N)=O [compound 231] |  |  | 5.9 | 94 |
| CC[C@H](C)[C@H](NC(=O)[C@@H](NC(=O)[C@H](C)NC(=O)[C@H](CC(C)C)NC(=O)[C@H](CC(C)C)NC(=O)[C@H](CC(C)C)NC(=O)[C@H](C)NC(=O)[C@H](CC(N)=O)NC(=O)[C@H](CC(N)=O)NC(=O)[C@H](C)NC(=O)[C@H](C)NC(=O)[C@H](CCC(N)=O)NC(=O)[C@H](CCC(N)=O)NC(=O)[C@H](CCCCN)NC(=O)[C@H](CCC(=O)O)NC(=O)[C@H](CCCCN)NC(=O)[C@H](CCC(=O)O)NC(=O)[C@H](CCC(N)=O)NC(=O)[C@H](CCCCN)NC(=O)[C@H](CCC(=O)O)NC(=O)[C@@H](NC(=O)[C@H](CCC(=O)O)NC(=O)[C@@H](NC(=O)[C@H](CCSC)NC(=O)[C@H](CCCCN)NC(=O)[C@H](CCCNC(=N)N)NC(=O)[C@H](CC(C)C)NC(=O)[C@H](CC(C)C)NC(=O)[C@H](Cc1ccc(O)cc1)NC(=O)[C@@H](NC(=O)[C@@H]1CCCN1C(=O)[C@H](CC(C)C)NC(=O)[C@H](CC(=O)O)NC(=O)[C@@H](NC(=O)[C@H](CO)NC(=O)[C@@H](NC(=O)[C@@H]1CCCN1C(=O)[C@@H]1CCCN1C(=O)CNC(=O)[C@@H]1CCC(=O)N1)[C@@H](C)CC)[C@@H](C)CC)[C@@H](C)O)[C@@H](C)CC)[C@@H](C)CC)[C@@H](C)O)C(N)=O [compound 233] | 46.1 | ≥ 1000 |  |  |
| CC[C@H](C)[C@H](NC(=O)[C@@H](NC(=O)[C@H](CC(=O)O)NC(=O)[C@H](CC(C)C)NC(=O)[C@H](CC(C)C)NC(=O)[C@H](CC(C)C)NC(=O)[C@H](C)NC(=O)[C@H](CC(N)=O)NC(=O)[C@H](CC(N)=O)NC(=O)[C@H](C)NC(=O)[C@H](C)NC(=O)[C@H](CCC(N)=O)NC(=O)[C@H](CCC(N)=O)NC(=O)[C@H](CCCCN)NC(=O)[C@H](CCC(=O)O)NC(=O)[C@H](CCCCN)NC(=O)[C@H](CCC(=O)O)NC(=O)[C@H](CCC(N)=O)NC(=O)[C@H](CCCCN)NC(=O)[C@H](CCC(=O)O)NC(=O)[C@@H](NC(=O)[C@H](CCC(=O)O)NC(=O)[C@@H](NC(=O)[C@H](CCSC)NC(=O)[C@H](CCCCN)NC(=O)[C@H](CCCNC(=N)N)NC(=O)[C@H](CC(C)C)NC(=O)[C@H](CC(C)C)NC(=O)[C@H](Cc1ccc(O)cc1)NC(=O)[C@@H](NC(=O)[C@@H]1CCCN1C(=O)[C@H](CC(C)C)NC(=O)[C@H](CC(=O)O)NC(=O)[C@@H](NC(=O)[C@H](CO)NC(=O)[C@@H](NC(=O)[C@@H]1CCCN1C(=O)[C@@H]1CCCN1C(=O)CNC(=O)[C@@H]1CCC(=O)N1)[C@@H](C)CC)[C@@H](C)CC)[C@@H](C)CC)[C@@H](C)CC)[C@@H](C)CC)[C@@H](C)O)C(N)=O [compound 236] | 40.4 | ≥ 1000 |  |  |
| CC[C@H](C)[C@H](NC(=O)[C@@H](NC(=O)[C@H](C)NC(=O)[C@H](CC(C)C)NC(=O)[C@H](CC(C)C)NC(=O)[C@H](CC(C)C)NC(=O)[C@H](C)NC(=O)[C@H](CC(N)=O)NC(=O)[C@H](CC(N)=O)NC(=O)[C@H](C)NC(=O)[C@H](C)NC(=O)[C@H](CCC(N)=O)NC(=O)[C@H](CCC(N)=O)NC(=O)[C@H](CCCCN)NC(=O)[C@H](CCC(=O)O)NC(=O)[C@H](CCCCN)NC(=O)[C@H](CCC(=O)O)NC(=O)[C@H](CCC(N)=O)NC(=O)[C@H](CCCCN)NC(=O)[C@H](CCC(=O)O)NC(=O)[C@@H](NC(=O)[C@H](CCC(=O)O)NC(=O)[C@@H](NC(=O)[C@H](CCSC)NC(=O)[C@H](CCCCN)NC(=O)[C@H](CCCNC(=N)N)NC(=O)[C@H](CC(C)C)NC(=O)[C@H](CC(C)C)NC(=O)[C@H](Cc1ccc(O)cc1)NC(=O)[C@@H](NC(=O)[C@@H]1CCCN1C(=O)[C@H](CC(C)C)NC(=O)[C@H](CC(=O)O)NC(=O)[C@@H](NC(=O)[C@H](CO)NC(=O)[C@@H](NC(=O)[C@@H]1CCCN1C(=O)[C@@H]1CCCN1C(=O)CNC(=O)[C@@H]1CCC(=O)N1)[C@@H](C)CC)[C@@H](C)CC)[C@@H](C)CC)[C@@H](C)CC)[C@@H](C)CC)[C@@H](C)O)C(N)=O [compound 237] |  |  | 22.2 | ≥ 1000 |
